# Target: Mu-type opioid receptor (Bos taurus, UniProt P79350)
# Sequences of proteins named here, by UniProt entry; tags and fusion partners are left off.
# UniProt P79350, whole entry: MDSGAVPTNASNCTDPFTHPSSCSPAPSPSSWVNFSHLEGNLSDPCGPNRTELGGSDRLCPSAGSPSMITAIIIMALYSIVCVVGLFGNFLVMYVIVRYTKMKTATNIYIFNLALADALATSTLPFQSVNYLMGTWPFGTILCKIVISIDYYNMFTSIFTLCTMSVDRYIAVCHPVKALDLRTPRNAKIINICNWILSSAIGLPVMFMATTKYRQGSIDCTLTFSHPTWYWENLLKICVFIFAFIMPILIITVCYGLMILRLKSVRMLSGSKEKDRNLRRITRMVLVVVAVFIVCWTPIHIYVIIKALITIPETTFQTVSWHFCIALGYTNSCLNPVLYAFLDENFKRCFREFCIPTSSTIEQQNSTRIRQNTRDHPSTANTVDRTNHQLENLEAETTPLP
smiles,measurement,value
CN1CCC23c4c5ccc(O)c4OC2C(O)CCC3C1C5 (stereo unspecified) [CAS_509-60-4],Ki,1.3 nM

# From BindingDB's records for doi:10.1016/j.ejphar.2004.03.050 (Memorial Sloan-Kettering Cancer Center, 2004)
